According to patent publication US12605384B2, “Uses” (INTRA-CELLULAR THERAPIES, INC., priority 2018, dated 2026):

What was measured:
[1] = test system: patients with stable chronic systolic HF; assay: Phase Ib/IIa single ascending dose study in human heart failure; assay type: in vivo; settings: 30 mg, in comparison with placebo
Procedure: A Phase Ib/IIa, multi center, double-blind, randomized, placebo-controlled single ascending dose study of Compound 1 in patients with stable chronic systolic HF (NYHA Class II-II, LVEF≤35%) was conducted to evaluate the impact of a single oral dose of Compound 1 on cardiac systolic and diastolic function. Participants were randomized 3:1 in 3-groups of 12 to receive either Compound 1 at 10 mg, 30 mg, 90 mg. A further group was administered placebo.
Hemodynamic monitoring began 30-60 minutes prior to the pre-dose echocardiogram through to 5-6 hours post-dose.
Supine and orthostatic blood pressure and heart rate were recorded pre-dose, as well as 60 and 40 minutes post-dose. Continuous electrocardiographic monitoring starting up to 30-60 minutes prior to the pre-dose echocardiogram through to 5-6 hours post-dose including measurement of ectopic arrhythmias pre- and post-dose.

[2] = test system: New Zealand White rabbits; assay: Pressure-volume hemodynamics in anesthetized rabbits; assay type: in vivo, rabbit; settings: 0.1 mg/kg i.v. bolus, alone
Procedure: Cyclic AMP is generated largely by transmembrane adenylyl cyclases activated via stimulatory G protein (Gs), with β-adrenergic, adenosine (primarily […]), glucagon, prostanoids, histamine, and serotonin all coupling to Gs in cardiomyocytes. The present studies focus on beta-adrenergic and adenosine receptors, and for the latter, concentrated on the A2B receptor, which has been reported to directly stimulate cAMP-dependent contractility. Anesthetized rabbits are administered a bolus intravenous Compound 1 at 0.1 mg/kg (dose based on dog results) with or without prior treatment with the selective β1-blocker esmolol or the adenosine A2BR blocker MRS-1754. […] Relaxation changes are also modest with LV preload (end-diastolic and volume) unaltered; however, the combined vasodilator-inotropic response doubled ventricular/arterial coupling ratio, Ees/Ea.
New Zealand White rabbits (male, 2-3 kg) are sedated with 35 mg/kg ketamine and 5 mg/kg xylazine, intubated and ventilated (Model 683, Harvard Apparatus, Holliston, MA), with anesthesia maintained with isoflurane inhalation (1-2%). […] The parallel conductance is determined by the hypertonic saline injection method. […]

Structure (SMILES): CN1C(=O)c2c(nn(Cc3ccc(-c4cccc(F)n4)cc3)c2Nc2ccccc2)N2C1=N[C@@H]1CCC[C@@H]12 [Compound 1, (6aR,9aS)-2-(4-(6-fluoropyridin-2-yl)benzyl)-5-methyl-3-(phenyl-amino)-5,6a,7,8,9,9a-hexahydrocyclopenta-[4,5]imidazo[1,2-a]pyrazolo[4,3-e]pyrimidin-4-(2H)-one monophosphate]
- mean power index (mPWRi) and cardiac output (CO) [1]: significantly greater increases; also recorded: significantly increased
- ventricular/arterial coupling ratio, Ees/Ea [2]: doubled

Entries after “also recorded” stand apart in the source; their conditions may differ.
